Measurements as given in patent US20240228570A9, “PLATFORM TECHNOLOGY FOR TREATMENT OF INFLAMMATORY, IMMUNOLOGICAL AND/OR AUTOIMMUNOLOGICAL DISEASES” (ellennbe GmbH, priority 2021, published 2024).

Tested on: inflammatory disease, immunological disease and/or autoimmunological disease
Experiment: Treatment of patients: condition as stated by patient and physician (pain, fatigue, daily life, duration of effect, relapses)
Format: in vivo, human
Conditions: Patient 7, rheumatoid arthritis/synovitis; before or beside the treatment of IE 7
Experimental: All patients treated in the following Inventive Examples, Reference Examples and Comparative Examples were selected solely based on their diagnosis without performing a preselection in view of other parameters.
Annotation to the Tables 8A and B and 9 to 10: Patients were usually examined and treated in the same session. The success of the treatment or the effect thereof was then determined in the following session, usually one week later, and the next treatment performed as indicated in the tables.

Substance: abatacept: selective immunosuppressive inhibiting T-cell activation
- effectiveness of earlier or basic treatment (patient history): insufficient effectiveness
